Measured affinities in a library of Ab-14 light chain variants

Source: Li et al. 2023 (doi:10.1038/s41467-023-39022-2), MIT Lincoln Laboratory and A-Alpha Bio; data file from the FLAb repository.

Binding partner: SARS-CoV-2 spike HR2 peptide, sequence PDVDLGDISGINAS.

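The parent was found by panning a naive human phage display library on the peptide. This is the validation round: designs drawn from the data on random variants, tested in the same kind of assay. Their group label is 14L_En_HC (En: ensemble of fine-tuned language models; HC: hill climbing; a sequence that several methods proposed may carry one label only). In AlphaSeq, yeast of one mating type display the scFv and yeast of the other type display the target. Binding brings cells together so that they mate, and sequencing counts the barcode pairs among the diploids. Each replicate has its own calibration line, from reference interactions of the BCL2 family. Mating was done six times.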

Ab-14 is the parent antibody, in scFv form: VH, then a (GGGGS)3 linker, then VL. The heavy chain is unchanged in all variants.
VH: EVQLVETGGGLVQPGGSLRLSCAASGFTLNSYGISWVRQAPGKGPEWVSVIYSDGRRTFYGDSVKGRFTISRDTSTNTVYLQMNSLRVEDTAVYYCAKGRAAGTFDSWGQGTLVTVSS
VL: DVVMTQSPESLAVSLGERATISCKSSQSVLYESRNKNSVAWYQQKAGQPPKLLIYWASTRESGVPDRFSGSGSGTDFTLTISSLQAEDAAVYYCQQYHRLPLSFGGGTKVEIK

Variants are written as CDR1, CDR2 and CDR3 of the light chain (limits as in the source). Parent: KSSQSVLYESRNKNSVA, WASTRES, QQYHRLPLS.
Scale: log10 of Kd in nM, estimated from mating counts; low values are strong binders.
Where no diploid with the target was found in that replicate, the entry reads "nd": below detection, most likely a poor binder, though not proof of it.
Three control strains display no target. For all light chain designs, 4% of the pairings with them gave a signal, with a median of 2.64 and one signal in twenty below 1.59, so weak values seen in few replicates may be background. The control count says in how many pairings with the empty strains this scFv gave a signal.
The range of this assay differs from that of the first round, and the authors advise against merging the two.
The authors averaged sequences with at least three values out of six and counted those with two or fewer as poor binders.

With HLTDTVMQGSYYRNSVA / QESTRAQ / QQYHRLPLS the result was 0.73, 0.59, 0.61, 0.32, 0.25, 0.48 (controls 0 of 18).
With ILSQMMLVAGNKHSSVA / QANNRED / QQYHRLPLS the result was 1.35, 1.19, 1.72, 1.50, 1.74, 1.57 (controls 0 of 18).
With KLSATYRFESSNKNNIA / EMTTRES / QCYHRLPLS the result was 0.65, 0.27, 0.83, 0.38, 0.48, 0.47 (controls 0 of 18).
With SITQLVGYGQKNKNSVA / QMETREN / QQYDRLPLS the result was 0.61, 0.51, 0.12, 0.49, 0.44, 0.90 (controls 0 of 18).
With KISYMGEYFSTNHSSIA / QASTREE / QQYHRLPLS the result was 1.29, 1.74, 0.36, 1.57, 0.68, 2.56 (controls 0 of 18).
With KLRGLTHIESFNKNNVA / EMTTRES / QSYDRLPLS the result was 0.19, 1.10, 0.05, 0.71, 0.19, 0.66 (controls 1 of 18).
With KLSQYVGGESRNKSSLA / DNSTRDS / QQYERLPLS the result was nd, nd, nd, 4.60, 2.35, nd (controls 1 of 18).
With KLSQVTHSESRNKNNIA / EMVTREV / QQYDRLPLS the result was 0.72, 0.77, 0.56, 0.71, 0.53, 0.62 (controls 3 of 18).
With KISQMYRYEQQNSSSIA / EANTRQQ / QSYHRLPLS the result was 2.61, 2.69, 2.36, 2.83, 2.93, 3.43 (controls 2 of 18).
With KLGGVTEYEMRNKNSVA / QMTTREN / QQYHRLPLS the result was 0.47, 0.08, 0.09, 0.16, 0.16, 0.55 (controls 3 of 18).
With KLTMMFQHTSRNKNNIA / ERSTREE / QQYHHLPLS the result was 0.66, 0.18, 0.61, 0.85, 0.95, 1.04 (controls 0 of 18).
With TISTSANYESTNINSVA / ELTTRGS / QQYERLPLS the result was 1.35, 1.82, 1.75, 1.25, 1.89, 1.70 (controls 1 of 18).
With QLGASFDMTSKNKNSVA / EQSTRGN / QQYHRLPLS the result was 0.16, 0.05, -0.08, -0.22, -0.14, 0.60 (controls 0 of 18).
With TLMEVGGYQLNSHNSIA / DLRTREN / QQYHRLPLS the result was 1.88, nd, nd, nd, nd, nd (controls 0 of 18).
With MLSQSVGYESRNKSRVA / DNSTRES / QQYDRLPLS the result was nd, nd, nd, nd, nd, 5.02 (controls 2 of 18).
With KCSQNVAIMGRGKNNVA / EMTTREE / QQYDRLPLS the result was 1.05, 0.64, 0.61, 0.59, 0.96, 1.36 (controls 2 of 18).
With LLYDSVGTLSRNKNSVA / DNSTRES / QQYDRLPLS the result was nd, 2.79, nd, nd, nd, 2.01 (controls 0 of 18).
With KLSMSYRFETEEKNSIA / ELVTRMR / QQYHRLPLS the result was nd, 1.69, 1.27, nd, 2.02, 3.74 (controls 0 of 18).
With KISFNFLIESRNLNSVA / EMTTREY / QDYDRLPLS the result was nd, nd, nd, nd, nd, nd (controls 0 of 18).
With KISQSIAFMSGNKNAIA / QMEMREE / QQYHRLPLS the result was 0.48, 0.54, 0.56, 0.42, 0.27, 0.75 (controls 2 of 18).
With KLTMMYQHTSLNKNNIA / ERSTREE / QQYHHLPLS the result was 0.40, 0.50, 0.20, 0.32, 0.22, 0.60 (controls 0 of 18).
With MITAGLRGVGRNKNSVA / NAQTREE / QHYHRLPLS the result was 2.16, 2.36, nd, 1.00, 1.90, 2.04 (controls 1 of 18).
With KIYASTMLESHDKNSIA / DLSTRGN / QQYHRLPLS the result was 1.17, 1.33, 0.94, 0.78, 0.75, 1.22 (controls 4 of 18).
With KLSQYAGGESRNKSSLA / DNSTRES / QQYHRLPLS the result was 2.40, 1.92, 1.82, 1.98, 3.35, 2.05 (controls 1 of 18).
With KLGAAMRFESSNKASIA / NNSTREE / QQYHRLPLS the result was 1.43, 1.29, 1.68, 1.21, 1.32, 1.72 (controls 1 of 18).
With MISDLTMYGSRNKNSVA / DLSQRGS / QQYHRLPLS the result was 0.22, 0.13, -0.19, -0.02, -0.05, 0.16 (controls 2 of 18).
With KISYMGEHFSTNHQAIA / QASTREQ / QQYHRLPIS the result was 1.22, 1.35, 0.21, 0.61, 1.38, 1.09 (controls 1 of 18).
With KLRQSTGYEMRNKDSIA / DNSTRGR / QQYHRLPLS the result was nd, 2.37, nd, nd, 2.26, 3.24 (controls 0 of 18).
With KLSLFYRVETIQKNSVA / DNSTRES / QDYDRLPLS the result was nd, nd, nd, nd, nd, nd (controls 2 of 18).
With KIGGVTNGLSRSKNSVA / EQSTRED / QQYNRLPLS the result was 0.24, 0.20, 0.08, -0.09, -0.07, 0.44 (controls 0 of 18).
With TLSQLMDMTSRNVNSVA / DLTTRGN / QQYHRLPLS the result was 0.59, 0.52, 0.34, 0.50, 0.92, 0.62 (controls 0 of 18).
With MISDLTMYGSRKKNSVA / DSSTRGS / QQYHRLPLS the result was -0.12, -0.26, -0.37, -0.49, -0.35, -0.25 (controls 2 of 18).
With TLTQVQGMESHNQDSVA / DLSTRGS / QQYHRLPLS the result was 0.90, 0.69, 0.80, 0.70, 0.60, 1.52 (controls 3 of 18).
With KIAATVLYESGLANSVA / QNSTRES / QQYHRLPLS the result was nd, nd, nd, nd, nd, nd (controls 1 of 18).
With KLIQSVAMSSRNKDNIA / DNSTREY / QQYHRLPLS the result was 1.10, 1.35, 0.93, 1.28, 0.85, 1.08 (controls 2 of 18).
With MIAQGLRGVGRNKNSVA / NAQTREQ / QHYHRLPLS the result was 1.37, 1.09, 0.58, 1.43, 0.73, 0.82 (controls 1 of 18).
With QLGASFDLTSKNKNSVA / EQSTREN / QQYHRLPLS the result was 0.11, -0.05, 0.07, 0.08, -0.10, 0.07 (controls 0 of 18).
With TISGMANYESTNKNSVA / ELTMRGQ / QQYERLPLS the result was 1.51, 1.42, 1.87, 1.45, 1.94, 1.72 (controls 0 of 18).
With IISEVDAYLSRNTNSIA / DQSTRGS / QQYDRLPLS the result was 0.79, 0.83, 0.78, 0.60, 0.77, 0.94 (controls 3 of 18).
With KLGSMVLLEHGNINSIA / QQSTREE / QQYDRLPLS the result was 0.33, 0.53, 0.52, 0.59, 0.52, 0.50 (controls 1 of 18).
With TIGQVMNYESRNRNSVA / QTSTREE / QDYDRLPLS the result was nd, nd, 2.59, 1.97, 3.12, nd (controls 1 of 18).
With KISYMGEYFSTNHSAIA / QASTREQ / QQYHRLPIS the result was 1.46, 0.99, 0.82, 1.18, 1.18, 1.37 (controls 1 of 18).
With KISYNFLIESRNLNSVA / EMTTREY / QDYDRLPLS the result was 1.60, nd, nd, nd, nd, nd (controls 0 of 18).
With TISQSAEQESHNKNSVA / DLSVRGS / QQYHRLPLS the result was -0.31, 0.45, -0.08, -0.01, 0.15, -0.03 (controls 1 of 18).
With TLGASTLEESRNKNSVA / EMSLRES / QSYNRLPLS the result was 0.54, 1.43, 0.74, 1.55, 0.53, 1.07 (controls 0 of 18).
With MISQLFMYGSRNYNSIA / QASEREK / QQYDRLPLE the result was 1.49, 1.09, 1.12, 1.55, 0.96, 0.80 (controls 0 of 18).
With KLSIMGLHQTIDKKSIA / ERSTREN / QQYHRLPLS the result was 0.40, 0.37, 0.15, 0.22, 0.43, 0.43 (controls 0 of 18).
With MISQSFLIGMKAKNSVA / QTSTRES / QQYDRLPLM the result was -0.05, -0.10, -0.22, -0.42, -0.17, -0.03 (controls 0 of 18).
With TLGDVTRMESNKKNSIA / DMSNRAD / QQYHRLPLA the result was -0.08, -0.19, -0.22, -0.41, -0.26, -0.06 (controls 1 of 18).
With KLSDVTEYESRNKNSVA / DLSTRGS / QDYHRLPLS the result was 0.47, -0.06, -0.11, -0.10, -0.02, 0.18 (controls 3 of 18).

Picked from the list: the 4 lowest averages where every replicate gave a value.

| CDR-L1 | CDR-L2 | CDR-L3 | replicates, log10 nM | empty controls |
|---|---|---|---|---|
| MISDLTMYGSRKKNSVA | DSSTRGS | QQYHRLPLS | -0.12, -0.26, -0.37, -0.49, -0.35, -0.25 | 2 of 18 |
| TLGDVTRMESNKKNSIA | DMSNRAD | QQYHRLPLA | -0.08, -0.19, -0.22, -0.41, -0.26, -0.06 | 1 of 18 |
| MISQSFLIGMKAKNSVA | QTSTRES | QQYDRLPLM | -0.05, -0.10, -0.22, -0.42, -0.17, -0.03 | 0 of 18 |
| TISQSAEQESHNKNSVA | DLSVRGS | QQYHRLPLS | -0.31, 0.45, -0.08, -0.01, 0.15, -0.03 | 1 of 18 |